The subject of the test is cancer cells. Nature of the test: Matrigel chemoinvasion assay in Boyden chambers. It is filed as cell-based. Conditions: preliminary screening, invasion/chemotaxis chambers vs untreated preparations.

On to `O=C(SCC(Cl)(Cl)Cl)P(=O)([O-])O.[Na+]`, for which the Activity entry is recorded as “++ (active at 50-100 μM)”.

For the origin of these results see patent US7468359B2, “Compositions comprising oxophosphonate-based metalloproteinase inhibitors” (Yissum Research Develpment Company of the Hebrew University …, priority 1999, dated 2008).
